According to patent publication US11419865B2, “Method for inducing a sustained immune response” (Cytocom Inc., priority 2016, dated 2022):

Test system: Hashimoto's patients
Assay: Hashimoto's thyroiditis case reports
Settings: titrated to 4.5 mg; from 300

## O=C1CC[C@@]2(O)[C@H]3Cc4ccc(O)c5c4[C@@]2(CCN3CC2CC2)[C@H]1O5 [Immediate release naltrexone, naltrexone]
  B12, person, Hashimoto's: 1785
